Measurements published in patent publication US8795611B2 (priority 2009, dated 2014).

Details: 36% (v/v) TBP in Isane IP 185; aqueous 360 g/L uranium, 2 mol/L nitric acid; after the 3rd contact (uranium depletion); 25° C.

In the case of `CCCCOP(=O)(OCCCC)OCCCC`, the “distribution coefficient of thorium 234, DTh” value is reported as “greater than 1”.
